In patent publication US6748954B2, “Drug release from polymer matrices through mechanical stimulation” (The Regents of The University of Michigan, priority 2000, dated 2004):

## VEGF
10% versus 25% strain amplitude
  dependence of VEGF release rate on magnitude of mechanical stimulation: directly related to the magnitude of the mechanical stimulation
control, non-compressed disks (B'), same time course
  release rate of VEGF from non-compressed hydrogel disks: fairly constant release rate
Six compression/relaxation cycles, 10% (A') or 25% (C') strain amplitude
  rate of release of VEGF from compressed hydrogel disks: significantly affected by mechanical stimulation
